Measured values: PMC7864192 (Cancers, 2021)

Key:
[1] = system: GCPA096 T1.V patient-derived AGCT cell line; experiment: Cell viability drug screen (Cell Titer Glo 2.0, 72 h), mono- and combination therapy, GCPA096T1.V; conditions: GCPA096T1V
[2] = system: GCPA113 T1.II patient-derived AGCT cell line; experiment: Cell viability drug screen (Cell Titer Glo 2.0, 72 h), mono- and combination therapy, GCPA113T1.II; conditions: GCPA113T1II
[3] = system: GCPA108 T3.IV patient-derived AGCT cell line; experiment: Cell viability drug screen (Cell Titer Glo 2.0, 72 h), mono- and combination therapy, GCPA108T3.IV; conditions: GCPA108T3IV
[4] = system: GCPA028 T1.II patient-derived AGCT cell line; experiment: Cell viability drug screen (Cell Titer Glo 2.0, 72 h), mono- and combination therapy, GCPA028
[5] = system: GCPA113 T1.I patient-derived AGCT cell line; experiment: Cell viability drug screen (Cell Titer Glo 2.0, 72 h), mono- and combination therapy, GCPA113T1.I; conditions: GCPA113T1I
[6] = system: GCPA096 T1.XV patient-derived AGCT cell line; experiment: Cell viability drug screen (Cell Titer Glo 2.0, 72 h), mono- and combination therapy, GCPA096T1.XV; conditions: GCPA096T1XV
[7] = system: GCPA096 T1.II patient-derived AGCT cell line; experiment: Cell viability drug screen (Cell Titer Glo 2.0, 72 h), mono- and combination therapy, GCPA096T1.II; conditions: GCPA096T1II
[8] = system: GCPA007 T2.I patient-derived AGCT cell line; experiment: Cell viability drug screen (Cell Titer Glo 2.0, 72 h), mono- and combination therapy, GCPA007T2.I; conditions: GCPA007T2I
[9] = system: GCPA096 T1.I patient-derived AGCT cell line; experiment: Cell viability drug screen (Cell Titer Glo 2.0, 72 h), mono- and combination therapy, GCPA096T1.I; conditions: GCPA096T1I
[10] = system: GCPA096 T1.XVI patient-derived AGCT cell line; experiment: Cell viability drug screen (Cell Titer Glo 2.0, 72 h), mono- and combination therapy, GCPA096T1.XVI; conditions: GCPA096T1XVI
[11] = system: GCPA007 T2.IV patient-derived AGCT cell line; experiment: Cell viability drug screen (Cell Titer Glo 2.0, 72 h), mono- and combination therapy, GCPA007T2.IV; conditions: GCPA007T2IV
[12] = drug within Carbo+Pacli+6thio2dG
[13] = drug within Carbo+Pacli+Alpelisib
[14] = in combination Carbo+Pacli+6thio2dG
[15] = in combination Carbo+Pacli+Alpelisib

## CC(=O)O[C@H]1C(=O)[C@@]2(C)[C@H]([C@H](OC(=O)c3ccccc3)[C@]3(O)C[C@H](OC(=O)[C@H](O)[C@@H](NC(=O)c4ccccc4)c4ccccc4)C(C)=C1C3(C)C)[C@]1(OC(C)=O)CO[C@@H]1C[C@@H]2O [Paclitaxel]
[1]; drug within Carbo+Pacli
  DRI (Fa=0,5): 3.02
[1]; [12]
  DRI (Fa=0,5): 11.84
[1]; [13]
  DRI (Fa=0,5): 43.02
[2]; drug within Carbo+Pacli
  DRI (Fa=0,5): 1.85
[2]; [12]
  DRI (Fa=0,5): 2.34
[2]; [13]
  DRI (Fa=0,5): 8.2
[3]; in Carbo+Pacli
  DRI (Fa=0,5): 21.373
[3]; in Carbo+Pacli+6thio2dG
  DRI (Fa=0,5): 16.0626
[3]; in Carbo+Pacli+Alpelisib
  DRI (Fa=0,5): 212.32
[4]; GCPA028, in combination Carbo+Pacli
  DRI (Fa=0,5): 0.06
[4]; GCPA028, in combination Carbo+Pacli+6thio2dG
  DRI (Fa=0,5): 0.03
[4]; GCPA028, in combination Carbo+Pacli+Alpelisib
  DRI (Fa=0,5): 4.93
[5]; in Carbo+Pacli
  DRI (Fa=0,5): 1.15
[5]; in Carbo+Pacli+6thio2dG
  DRI (Fa=0,5): 2.61
[5]; in Carbo+Pacli+Alpelisib
  DRI (Fa=0,5): 33.24
[6]; drug within Carbo+Pacli
  DRI (Fa=0,5): 3.41
[6]; [12]
  DRI (Fa=0,5): 9.39
[6]; [13]
  DRI (Fa=0,5): 30.81
[7]; drug within Carbo+Pacli
  DRI (Fa=0,5): 6.18
[7]; [12]
  DRI (Fa=0,5): 12.77
[7]; [13]
  DRI (Fa=0,5): 31.92
[8]; in Carbo+Pacli (10:1)
  DRI (Fa=0,5): 1.46
[8]; in Carbo+Pacli+6thio2dG (10:1:1)
  DRI (Fa=0,5): 0.84
[8]; in Carbo+Pacli+Alpelisib (10:1:2)
  DRI (Fa=0,5): 76.3
[9]; in combination Carbo+Pacli
  DRI (Fa=0,5): 4.8
[9]; [14]
  DRI (Fa=0,5): 7.79
[9]; [15]
  DRI (Fa=0,5): 19.8
[10]; in Carbo+Pacli
  DRI (Fa=0,5): 5.48
[10]; in Carbo+Pacli+6thio2dG
  DRI (Fa=0,5): 5.05
[10]; in Carbo+Pacli+Alpelisib
  DRI (Fa=0,5): 20.6
[11]; in combination Carbo+Pacli
  DRI (Fa=0,5): 3.69
[11]; [14]
  DRI (Fa=0,5): 1.83
[11]; [15]
  DRI (Fa=0,5): 51.12
